Test system: dendritic cells
Assay: In vitro assay of dendritic cell migration
Type: cell-based
Conditions: cells incubated 24 hours with the fraction or polypeptide, then migration towards MIP-3β; ESAs at final dilution 1:20; index relative to untreated control

B1: SEQ ID NO.13: polypeptide of SEQ ID NO.3 (fragment of GRA5-RH, without the C-terminal threonine) fused with GST (protein)
chain: SPILGYWKIKGLVQPTRLLLEYLEEKYEEHLYERDEGDKWRNKKFELGLEFPNLPYYIDGDVKLTQSMAIIRYIADKHNMLGGCPKERAEISMLEGAVLDIRYGVSRIAYSKDFETLKVDFLSKLPEMLKMFEDRLCHKTYLNGDHVTHPDFMLYDALDVVLYMDPMCLDAFPKLVCFKKRIEAIPQIDKYLKSSKYIAWPLQGWQATFGGGDHPPKSDLIEGRGIPGGSTRDVGSGGDDSEGARGREQQQVQQHEQNEDRSLFERGRAAVTGHPVREFIVTD
modifications: GST fusion; Fusion protein of glutathione S-transferase and amino acids 26-75 of the sequence of GRA5 protein from RH strain of toxoplasma gondii
- migration of dendritic cells (migration-inducing activity, migration index): possesses the activity

From patent US20100160219A1, “Novel Polypeptides Inducing Dendritic Cell Migration, as Well as Medicines and Pharmaceutical Compositions Containing Same” (priority 2006, published 2010)
